According to paper PMC9837035 (Nature Communications, 2023):
Values joined by “and” are separate entries in the source; they are usually repeats but may differ in a detail not shown here. Identical values can stand only once.

Columns and labels:
G9a = target: T1, G9a (Homo sapiens, UniProt Q96KQ7); experiment: In vitro G9a methyltransferase assay (AlphaLISA-based); format: biochemical; parameters: purchased BPS Bioscience
T1 sequence (Q96KQ7 1-1210): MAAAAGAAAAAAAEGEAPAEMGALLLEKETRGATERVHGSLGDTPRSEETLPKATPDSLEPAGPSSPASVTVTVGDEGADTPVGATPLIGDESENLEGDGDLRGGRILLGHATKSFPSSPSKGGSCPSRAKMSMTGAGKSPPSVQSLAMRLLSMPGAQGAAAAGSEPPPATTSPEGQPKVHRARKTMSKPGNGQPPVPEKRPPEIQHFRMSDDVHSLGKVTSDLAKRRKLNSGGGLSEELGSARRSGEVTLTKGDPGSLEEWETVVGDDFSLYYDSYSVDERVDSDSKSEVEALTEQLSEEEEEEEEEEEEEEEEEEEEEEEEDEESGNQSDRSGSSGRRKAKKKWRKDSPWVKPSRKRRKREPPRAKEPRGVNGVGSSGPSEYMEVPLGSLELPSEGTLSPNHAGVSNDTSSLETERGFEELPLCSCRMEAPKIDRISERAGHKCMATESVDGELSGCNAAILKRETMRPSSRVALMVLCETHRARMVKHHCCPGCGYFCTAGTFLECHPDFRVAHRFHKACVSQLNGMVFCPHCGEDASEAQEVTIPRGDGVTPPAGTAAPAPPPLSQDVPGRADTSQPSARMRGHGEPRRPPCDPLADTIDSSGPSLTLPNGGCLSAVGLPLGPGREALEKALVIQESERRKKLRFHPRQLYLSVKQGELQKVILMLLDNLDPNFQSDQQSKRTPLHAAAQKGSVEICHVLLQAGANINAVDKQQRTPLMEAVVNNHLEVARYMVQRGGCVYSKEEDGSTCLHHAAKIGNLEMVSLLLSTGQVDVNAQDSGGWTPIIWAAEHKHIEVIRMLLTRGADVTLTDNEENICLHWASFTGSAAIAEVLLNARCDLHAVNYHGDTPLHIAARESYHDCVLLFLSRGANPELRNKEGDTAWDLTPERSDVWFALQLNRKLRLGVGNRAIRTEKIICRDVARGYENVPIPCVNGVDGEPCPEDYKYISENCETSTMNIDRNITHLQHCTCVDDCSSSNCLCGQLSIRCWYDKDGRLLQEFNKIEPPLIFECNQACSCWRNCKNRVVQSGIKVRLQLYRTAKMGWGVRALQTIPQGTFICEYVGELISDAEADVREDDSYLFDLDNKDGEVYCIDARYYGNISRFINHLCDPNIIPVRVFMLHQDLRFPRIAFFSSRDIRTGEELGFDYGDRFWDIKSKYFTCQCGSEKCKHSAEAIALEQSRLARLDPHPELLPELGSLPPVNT
Experimental: An amplified luminescence proximity homogeneous assay (ALPHA) was performed with a modified version of a previously described method. Recombinant G9a proteins (BPS Bioscience) were incubated with 15 μM S-adenosyl-methionine (Sigma) and 50 nM biotinylated histone H3 (1-21; AnaSpec) in the assay buffer (50 mM Tris-HCl (pH 9.0), 50 mM NaCl, 0.01% Tween-20, and 1 mM DTT). After incubation at room temperature for 1 h, AlphaLISA anti-H3K9me2 acceptor beads (final concentration 10 μg/mL, PerkinElmer, AL117C) and AlphaScreen streptavidin donor beads (final concentration 10 μg/mL, PerkinElmer, 6760002B) were added and incubated for an additional 1 h prior to detection of the alpha signal with an EnSpire Alpha plate reader (PerkinElmer). ALPHA profile was analyzed using Origin (OriginLab).

[1] = tested on: BGLT3 RNA in HUDEP-2 cells; experiment: RT-qPCR of BGLT3 in HUDEP-2 cells; format: cell-based, human; settings: HUDEP-2, 4 days
Experimental: (§1) Total cellular RNA was prepared using the Tissue Total RNA Mini Kit (FAVORGEN), and cDNA was synthesized using ReverTra Ace Master Mix (TOYOBO). Expression of target genes was analyzed using THUNDERBIRD SYBR qPCR Mix (TOYOBO) on a CFX Connect Real Time System (Bio-Rad). The qPCR data were acquired on CFX Maestro (Bio-Rad). Primers are listed in Supplementary Table 10. GAPDH was used as a reference. Primers were purchased from INTEGRATED DNA TECHNOLOGIES or FASMAC.

BGLT3 RNA in CD34+ cells = experiment: RT-qPCR of BGLT3 in CD34+ cells; format: cell-based, human; settings: DAY7, 3 μM
Experimental: HUDEP-2 cells and HiDEP-1 cells were grown in Stemline II Hematopoietic Stem Cell Expansion Medium (Sigma) supplemented with 50 ng/mL recombinant stem cell factor (SCF; R&D systems), 3 IU/mL recombinant erythropoietin (EPO; Kyowa Kirin), 1 μM dexamethasone (Dex; Sigma), and 1 μg/mL doxycycline (Sigma). A total of 1 × 10^5 human CD34^+ progenitor cells derived from bone marrow or peripheral blood (Lonza) were cultured on 35-mm dishes (BD Falcon) in StemSpan SFEMII medium with 50 ng/mL SCF, 5 IU/mL EPO, and 10 ng /mL interleukin 3 (IL-3; R&D systems). The medium was changed on day 4 to SCF, EPO, and 1 μM Dex, and the cells were transferred to 60-mm dishes (BD Falcon). Seven days after the onset of differentiation, cells were counted and 1 × 10^6 cells were re-plated on 100-mm dishes (BD Falcon) with SCF, EPO, and Dex. The rat myoblast cell line H9c2, HEK293T, and PLAT-E cells were maintained in Dulbecco’s modified Eagle’s medium (Thermo Fisher Scientific) supplemented with 10% heat-inactivated fetal bovine serum (FBS) and penicillin/streptomycin. All cells were cultured at 37 °C under 5% CO2.
as §1

[2] = tested on: β- and γ-globin genes in HUDEP-2 cells; experiment: RT-qPCR of β- and γ-globin in HUDEP-2 cells; format: cell-based, human; settings: HUDEP-2, 4 days
Experimental: as §1

## Cc1c(C(=O)N[C@H](CCC2CC2)C(=O)Nc2ccc(C#N)cc2)[nH]c2c1C(=O)CC(C)(C)C2 [RK-0133114]
G9a
  fold weaker inhibition than RK-701: ~ 100 fold
[1]; 0.03 μM
  Relative expression of BGLT3 RNA: 0.5248 and 1.042 and 0.6576
[1]; 0.1 μM
  Relative expression of BGLT3 RNA: 1.063 and 1.044 and 1.39
[1]; 0.3 μM
  Relative expression of BGLT3 RNA: 1.106 and 0.86 and 0.6718
[1]; 1 μM
  Relative expression of BGLT3 RNA: 1.177 and 0.871 and 0.6455
[1]; 3 μM
  Relative expression of BGLT3 RNA: 1.149 and 0.8746 and 0.841
BGLT3 RNA in CD34+ cells
  Relative expression of BGLT3 RNA: 2.448 and 2.349 and 2.501
[2]; 0.03 μM, relative to DMSO
  Relative expression of β-globin: 0.9476 and 0.9117 and 0.7199
  Relative expression of γ-globin: 1.068 and 1.169 and 1.019
[2]; 0.1 μM
  Relative expression of β-globin: 0.9383 and 0.8834 and 0.8704
  Relative expression of γ-globin: 1.237 and 1.228 and 1.187
[2]; 0.3 μM
  Relative expression of β-globin: 0.875 and 0.8569 and 0.9208
  Relative expression of γ-globin: 0.8891 and 1.107 and 1.136
[2]; 1 μM
  Relative expression of β-globin: 1.026 and 0.9802 and 0.9189
  Relative expression of γ-globin: 0.8715 and 1.235 and 1.061
[2]; 3 μM
  Relative expression of β-globin: 1.054 and 0.9655 and 0.8251
  Relative expression of γ-globin: 1.041 and 1.394 and 1.125
